One may read the IC50 as the concentration that gives 50% inhibition. The low end stands for greater potency, the high end for weaker potency. In general, pIC50 refers to −log10 of the IC50, conventionally taken in molar units. High values mean a small IC50, low ones a large IC50.

A short description of this test: Inhibition of Plasmodium vivax FPPS expressed in Escherichia coli BL21 by spectrophotometric assay. In outline: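 Recombinant enzyme from lysed cells (lysozyme, nuclease, protease inhibitors), purified on Ni-NTA resin. The GPP + IPP condensation was followed at room temperature by a continuous spectrophotometric phosphate-release assay in 25 mM Hepes, 2.5 mM MgCl₂, pH 7.4. Inhibitors were preincubated with enzyme for 30 min at room temperature. IC50 was obtained by fitting the dose–response curve.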

The compound `O.O=P(O)(O)C(O)(Cn1ccnc1)P(=O)(O)O` [ZOLEDRONIC ACID] displayed an IC50 of 790 nM.

With `O=P([O-])(O)C(O)(CC1=[n+]2ccccc2=NC1)P(=O)(O)O` (stereo not drawn), the concentration for half-maximal inhibition (IC50) came to 640 nM and the negative logarithm of the IC50 (pIC50) stood at 6.2.
